High-throughput results as filed in PubChem BioAssay.
This is a sample that favours compounds with a hit; in the whole collection about 4.2% have one here.
MC4R antagonist – blocks human MC4R cAMP signaling; inhibition, % at 6.5 µM; actives 0.48% (n = 360,000); AID 540295; P32245; MC4R-expressing cells, MTII-stimulated cAMP, LANCE TR-FRET;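 active means inhibition above its plate's cutoff, the mean of tested wells on that plate plus 3 SD, cut at about 29% in these data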
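System: U2OS-MC4R stable cell line; Technique: Eu-cAMP/anti-cAMP TR-FRET, emission 671 nm; Repeats: single well per compound; Also added: Melanotan II; Dosing: one concentration, 6.5 µM nominal; Schedule: 30-min compound, 1-h challenge, 1-h detection, room temperature.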
Yeast UUG start – modulators of start codon recognition fidelity in yeast; S. cerevisiae UUG-firefly luciferase reporter, luminescence/redox ratio; activity score, % at 18.7 µM; hit rate 0.13% among 350,000; AID 602363;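 active = replicate mean at a twofold rise or more, about +100% in these data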;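 note: firefly luciferase made from a UUG start codon reports start codon fidelity; reporter light over untreated wells divided by growth signal over untreated wells; some hits fall short of that in this replicate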
HDAC3 inhib – human HDAC3 inhibition; O15379; recombinant HDAC3, fluorogenic peptide/trypsin coupled, fluorescence; inhibition, % at 8.3 µM; actives 0.15% (n = 320,000); AID 2718; in the data active means inhibition above about 26%, passing the limit was not always enough; inconclusive means no clear call, values can overlap the other calls
NALP1 inh – NALP1 inhibition; S. cerevisiae NALP1/ASC/caspase-1 growth, X-gal OD620, 72 h; inhibition, % at 10 µM; actives 0.61% (n = 280,000); AID 2071; in the data active means inhibition mostly above about 24%, no sharp cut-off; inactive means mostly below about 32%
ALR inh – inhibitors of human ALR sulfhydryl oxidase, primary screen, biochemical, H2O2 detection, HRP-luminol luminescence, single point; FAD-linked sulfhydryl oxidase ALR (Homo sapiens), P55789; purified ALR, DTT oxidation; inhibition, % (concentration not given with the values); 290,000 compounds, 3.8% hits; AID 485317, 2010;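 active = mean and each replicate at 75% or more; inconclusive = only one of the two met; inactive = neither met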;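 note: stock transfer was 7.5 nL into about 7.5 µL; 0% = neutral wells and 100% = wells with inactivated enzyme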
MC4R ag barr – activates human MC4R beta-arrestin recruitment; activation, % at 8.9 µM; AID 540308; U2OS MC4R beta-arrestin complementation, luminescence; percent of melanotan II response, DMSO zero; actives 0.98% (n = 360,000); P32245;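 active means activation above a per-plate cutoff, the mean activation of sample wells on that plate plus 3 SD, cut at about 8% in these data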
Numbers stand for hits; n = inactive; u = inconclusive; x = no result given.

SMILES	MC4R antagonist	Yeast UUG start	HDAC3 inhib	NALP1 inh	ALR inh	MC4R ag barr
CC(=O)N(C)C[C@@H]1Oc2ncc(C#Cc3cccnc3)cc2C(=O)N([C@H](C)CO)C[C@H]1C	x	n	x	x	x	x
Cc1ccc(-c2nc(CS(=O)CC(=O)NCCC(C)C)c(C)o2)cc1 (stereo not given)	n	n	n	n	98.2	n
CCCN(CCC)CCNC(=O)CS(=O)Cc1nc(-c2ccc(C)cc2)oc1C (stereo not given)	n	x	n	n	98.3	n
CCCCNC(=O)CS(=O)Cc1nc(-c2ccc(C)cc2)oc1C (stereo not given)	n	n	n	n	98.7	n
CCCNC(=O)CS(=O)Cc1nc(-c2ccc(OC)cc2)oc1C (stereo not given)	n	n	n	n	99.3	n
C[C@@H](NC(=O)C[C@H]1C[C@H]2c3cc(NC(=O)CC4CC4)ccc3O[C@H]2[C@@H](CO)O1)c1ccccc1	x	n	x	x	x	x
CN1CCN(C(=O)C[C@H]2C[C@@H]3c4cc(NC(=O)c5cccnc5)ccc4O[C@@H]3[C@@H](CO)O2)CC1	x	n	x	x	x	x
CO[C@H]1CN(C)C(=O)c2ccc(NC(=O)c3nc4ccccc4s3)cc2OC[C@H](C)N(Cc2cncnc2)C[C@H]1C	x	n	x	x	x	x
CCCNC(=O)C[C@@H]1CC[C@@H]2[C@@H](COc3ccc(NC(=O)c4ccc(C(F)(F)F)cc4)cc3C(=O)N2C)O1	x	n	x	x	x	x
CCCOc1ccc(OCCSc2nnc(N)s2)cc1	n	n	n	n	n	n
CCCOc1ccc(-c2cnc(N)s2)cc1	n	n	n	n	98.0	n
CCCCCCC1(C)NC(=S)N(c2ccccc2)N1 (stereo not given)	n	x	u	n	n	n
CCC1(c2ccccc2)NC(=S)N(c2ccc(C)cc2)N1 (stereo not given)	n	n	n	n	93.7	n
CCC1(c2ccc(Cl)cc2)NC(=S)N(c2ccccc2)N1 (stereo not given)	n	n	n	n	94.5	n
CCCCCC1(C)NC(=S)N(c2ccccc2)N1 (stereo not given)	n	x	n	n	n	n
CCCC#Cc1cnc2c(c1)C(=O)N([C@H](C)CO)C[C@@H](C)[C@@H](CN(C)C(=O)Nc1ccc(OC)cc1)O2	x	n	x	x	x	x
CCCN(CCC)C(=O)c1cc2c(=O)[nH]c3ccc(C)cc3c2s1	n	n	n	n	x	n
Cc1ccc(C)c(N(C)C(=O)c2cc3c(=O)[nH]c4ccc(C)cc4c3s2)c1	n	x	n	x	n	9.1
N#Cc1ccc(OCC(=O)OCC(=O)Nc2ccc(N3CCOCC3)cc2)cc1	n	x	n	x	93.9	n
C/C(=N\NC(=O)COc1ccc(C#N)cc1)c1ccc(N2CCOCC2)cc1	n	x	n	n	99.0	n
O=C(COC(=O)CNS(=O)(=O)c1ccc(Br)cc1Cl)Nc1ccc(N2CCOCC2)cc1	n	n	n	x	98.8	n
CCC(=O)N1C[C@@H](C)[C@@H](OC)CN(C)C(=O)c2cc(NC(=O)C3CC3)ccc2OC[C@H]1C	x	n	x	x	x	x
O=C(C[C@@H]1C[C@@H]2c3cc(NC(=O)C4CCOCC4)ccc3O[C@@H]2[C@H](CO)O1)NC1CCCC1	x	n	x	x	x	x
O=C(c1ccccc1)c1cccn1CC(=O)N1CCN(C2CCCCC2)CC1	n	n	n	n	n	n
O=C(c1ccccc1)c1cccn1CC(=O)N1CCN(c2ccccc2)CC1	n	n	n	n	96.8	n
SMILES	MC4R antagonist	Yeast UUG start	HDAC3 inhib	NALP1 inh	ALR inh	MC4R ag barr
O=C(c1ccccc1)c1ccc(C(=O)N2CCN(c3ccc(O)cc3)CC2)cc1	n	n	n	x	99.4	n
C[C@H](CO)N1C[C@H](C)[C@@H](CN(C)S(=O)(=O)c2cccs2)Oc2ncc(/C=C/c3ccccc3)cc2C1=O	x	n	x	x	x	x
O=C1C2CCCN2C(=O)N1CCCN1CCN(c2cccc(Br)c2)CC1 (stereo not given)	n	n	n	n	85.4	n
Nc1ccc(N2CCN(CCCCN3C(=O)C4CCCN4C3=O)CC2)cc1 (stereo not given)	n	x	n	n	99.2	n
Cc1ccc(CNC(=O)/C(C#N)=C\c2ccc(N(C)C)cc2)cc1	x	x	n	n	97.9	x
Cc1ccc(/C=C(\C#N)C(=O)NCCN2CCOCC2)cc1	n	x	n	20.8	n	n
COCCNC(=O)/C(C#N)=C/c1ccc(O)cc1	n	x	n	x	87.3	n
CCOC(=O)c1[nH]c2ccccc2c1N=CN(CC)CC	n	n	n	n	98.5	n
CCCC(=O)Nc1c(C(=O)OCC)[nH]c2ccccc12	n	n	n	n	n	n
CCCC#Cc1cnc2c(c1)C(=O)N([C@@H](C)CO)C[C@H](C)[C@H](CN(C)Cc1ccncc1)O2	x	n	x	x	x	x
O=C1C=CC(=O)N1c1cccc(-c2ccccc2)c1	48.2	x	n	n	x	n
COc1ccc(CN(C)C[C@H]2OCCCC[C@H](C)Oc3ccc(NC(=O)c4ccccc4)cc3C(=O)N([C@@H](C)CO)C[C@H]2C)cc1	x	n	x	x	x	x
Cc1ccc2nc(-c3ccc(N)cc3)sc2c1	n	n	n	n	n	n
Nc1ccc(-c2nc3cc(N)ccc3s2)cc1	n	n	n	n	98.6	n
COCc1cc(C)nc(N2CCN(Cc3ccccc3)CC2)c1C#N	n	n	n	41.3	n	n
COCc1cc(C)nc(N2CCCCC2)c1C#N	n	n	n	n	n	n
COCc1cc(C)nc(N2CCN(c3ccccc3)CC2)c1C#N	n	n	n	n	94.7	n
OCCOCCn1c(C(CO)Nc2nc(-c3ccc(Cl)cc3)cs2)nc2ccccc21 (stereo not given)	n	n	n	x	94.6	n
Nc1c(Cl)cc(-c2csc(NC(CO)c3nc4ccccc4n3CCOCCO)n2)cc1Cl (stereo not given)	n	n	n	x	n	n
Cc1ccc2nc(-c3cccc(S(=O)(=O)N(C)C)c3)cn2c1	n	n	n	n	99.2	n
Cc1ccc2nc(-c3cccc(S(=O)(=O)N4CC(C)OC(C)C4)c3)cn2c1 (stereo not given)	n	n	n	n	98.1	n
CN(C)S(=O)(=O)c1cccc(-c2cn3cccnc3n2)c1	n	x	n	n	98.6	n
CCN(CC)S(=O)(=O)c1cccc(-c2cn3cc(C)ccc3n2)c1	n	x	n	n	n	n
CC(C)c1cn(CC[C@@H]2CC[C@@H](NS(=O)(=O)c3ccccc3)[C@H](CO)O2)nn1	x	n	x	x	x	x
CN(C)CC(=O)N1[C@@H]2c3ccc(-c4ccc(F)cc4)c(=O)n3C[C@@H]2[C@@H](CO)[C@@H]1C(=O)NC1CCC1	x	n	x	x	x	x
Cc1ccc2c(CC(=O)Nc3sccc3C(N)=O)coc2c1	n	x	n	n	85.5	n
COc1ccc(-c2cn(CC[C@H]3CC[C@@H](NS(=O)(=O)c4ccccc4C)[C@H](CO)O3)nn2)cc1	x	n	x	x	x	x
Fc1ccc(-c2ccnc(=S)[nH]2)cc1	n	n	n	n	99.4	n
